One may read the DC50 as the midpoint of the concentration-degradation curve.

The target in this test is Bcl6 (Homo sapiens (Human), UniProt P41182). Nature of the test: Bcl-6 protein degradation experiment in Farage cells. It counts as cell-based. Conditions: read-out: Bcl6 DC50, 24 hours, tested form: TFA.

Some results are limits rather than exact numbers.

For the compound `CNC(=O)COc1cc2cc(Nc3nc(N4CCC(CN5CCN6c7ccc(C8CCC(=O)NC8=O)cc7CCC6C5)CC4)ncc3Cl)ccc2n(C)c1=O` (single isomer, unassigned), the DC50 is under 10 nM.

For the origin of these results see patent US20250333410A1, “COMPOUND FOR INHIBITING OR DEGRADING BCL6 AND USE THEREOF IN PHARMACEUTICS” (XIZANG HAISCO PHARMACEUTICAL CO., LTD., priority 2022, published 2025).
